Like-named read-outs stand apart in the source and are kept apart here.

The conditions of series [1]: in water, powder, cited from earlier work.
The test system of another series is paddy seeds. Nature of the series: Possibility of growth of paddy seeds in tank farming without soil (Example 3). The method, then:
The decay-inhibiting effect of molybdenum-containing substances in tank farming without soil was examined.
The possibility of growth and the inhibition of decay were determined in the same manner as above.

A further series has as its system paddy rice. Nature of the series: Seedling establishment of paddy seeds soaked in solutions of readily-soluble molybdenum substances (Example 2-2, FIGS. 8 and 13). Type of series: in vivo. Conditions: ten-minute soaking. As for the experimental part: The examination of the proportion of seedling establishment was carried out under the same conditions as the examination whose results are shown in FIG. 8, except for the molybdenum concentration and the duration of soaking.

The test system of another series is sulfide ion generation. Nature of the series: Inhibition of sulfide ion generation, paddy seeds covered with slightly-soluble substances (Example 2-3, FIG. 9). The settings on record: approximately 0.1 mmol/g (per dry seeds) in terms of molybdenum or tungsten. The text has this:
The water on slightly germinated seeds was lightly wiped off, and immediately after that, the seeds were put with (lightly covered with) various amounts of the slightly-soluble substances shown in Table 1. […] The number of days for which sulfide ion generation was inhibited and the proportion of seedling establishment were examined.

As for “12-moblybdo(VI)phosphoric acid n-hydrate [Molybdophosphoric acid]”, the Water solubility result in series [1] is on record as “Readily soluble”; in series [1] (listed as molybdophosphoric acid), “readily soluble”. For the same substance, the “Soaking: Possibility of growth, Concentration of Molybdenum in Solution” value in the series on paddy seeds (in vivo) was 0.03 M. Further, in the series on paddy seeds (in vivo), the “Ten-minute soaking: Possibility of growth, Concentration of Molybdenum in Solution” value is 1< M.

Turning to Ammonium molybdate tetrahydrate, the “molybdenum concentration of the soaking solution at which proportion of seedling establishment improved” value in the series with paddy rice (FIG. 8) is “approximately 1 M”. Also, the “proportion of seedling establishment” value with paddy rice (soaking solution 2 M molybdenum) is on record as “decrease in proportion of seedling establishment”. Further, the figures for the Water solubility result in series [1] and in series [1] (listed as ammonium molybdate) were “Readily soluble” and “readily soluble”, respectively. Besides, the “Soaking: Possibility of growth, Concentration of Molybdenum in Solution” value with paddy seeds (paddy seeds left soaked two weeks in the solution at 30° C., no soil, concentration at which sheath leaf elongation was observed) is 0.06 M. In the series on paddy seeds (seeds soaked ten minutes in the solution, then two weeks in water at 30° C.), the “Ten-minute soaking: Possibility of growth, Concentration of Molybdenum in Solution” value is listed as 1< M.

For “Ammonium phosphotungstate trihydrate [Ammonium tungstophosphate]”, in series [1], the Water solubility result is “Slightly soluble (has a percentage of solubility of 10% by weight or lower with respect to water)”. Also, in the series with sulfide ion generation, the “number of days for which sulfide ion generation was inhibited” value is “fourteen”.

The record behind these values is patent US20120283096A1, “AGENT FOR IMPROVING PLANT GROWTH, SEEDS, AND METHOD FOR IMPROVING PLANT GROWTH” (Incorporated Administrative Agency National Agricu lture …, priority 2010, published 2012).
